Laboratory results from patent US12351648B2, “Methods of inhibiting MASP-2 for the treatment and/or prevention of coronavirus-induced acute respiratory distress syndrome” (priority 2020, dated 2025).
Where two headings read alike, the source gives them in different places.

Amino acid sequences for entries named in this document (tags omitted). Residues count along the entry.
UniProt O00187, 287-686: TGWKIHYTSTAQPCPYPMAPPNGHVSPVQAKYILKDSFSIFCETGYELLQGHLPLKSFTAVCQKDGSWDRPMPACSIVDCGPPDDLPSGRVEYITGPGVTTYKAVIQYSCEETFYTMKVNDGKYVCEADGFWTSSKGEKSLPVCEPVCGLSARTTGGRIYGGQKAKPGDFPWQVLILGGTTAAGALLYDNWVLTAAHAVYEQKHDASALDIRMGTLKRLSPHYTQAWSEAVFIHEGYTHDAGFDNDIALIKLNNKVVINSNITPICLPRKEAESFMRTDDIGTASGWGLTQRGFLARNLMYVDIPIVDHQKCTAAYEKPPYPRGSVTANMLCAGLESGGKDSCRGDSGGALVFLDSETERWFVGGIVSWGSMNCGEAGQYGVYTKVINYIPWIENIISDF

Target: MASP-2 (CCP1-CCP2-SP) (Homo sapiens (Human), UniProt O00187)
Test: Enzymatic assay for MASP-2 (fluorogenic substrate)
Type: biochemical

## Cc1nc(N)ccc1CNC(=O)[C@@H](C)NC(=O)[C@H]1C[C@H](c2cccc(-c3ccccc3)c2)CN1 [Compound 1359]
MASP-2 Ki (μM)
  Ki: 0.5 to 2.5 µM

## Cc1nc(N)ccc1CNC(=O)[C@H](C)NC(=O)[C@H]1C[C@H](c2cccc(-c3ccccc3)c2)CN1 [Compound 1360]
read-out: MASP-2 Ki
  Ki: < 0.5 µM
